Source: ChEMBL document CHEMBL1155410, “Structure-based design and synthesis of novel P2/P3 modified, non-peptidic beta-secretase (BACE-1) inhibitors” (Bioorg Med Chem Lett, 2010)

Columns and labels:
[1] = Selectivity ratio for BACE1 over BACE2
[2] = Selectivity ratio for BACE1 over Cathepsin D

CC(C)c1cccc(CNC[C@H](O)[C@H](Cc2ccccc2)NC(=O)[C@@H]2CCC[C@H](C(C)(C)N3CCCCC3=O)C2)c1 showed a Selectivity ratio [1] of 50 and a Selectivity ratio [2] of 50.
